Results taken from article PMC5778159 (Naunyn-Schmiedeberg's Archives of Pharmacology, 2017).

Assay: Isolated perfused rat liver (IPRL) study, recirculating
Details: for concentration in the perfusion buffer: average, 300 μg in 200 mL
Procedure: Rat livers were perfused in situ using PS-1 perfusion system from Harvard Apparatus-Hugo Sachs Electronics (HA-HSE). […] The temperature of the perfusion medium was thermostatically controlled at 37 °C. In each experiment, the common bile duct was cannulated with PE-10 tubing. […] Experiments were carried out in a recirculating manner with the total volume of perfusate equal 200 mL. […] Samples of bile were collected in pre-weighed Eppendorf vials and measured by gravimetric volume at the end of perfusion period, assuming a density of 1. Perfusate was collected from the reservoir at 5 min intervals up to 45 min.
Non-compartmental estimates of hepatic pharmacokinetic parameters were determined from the outflow concentration-time profiles. The hepatic extraction ratio (ERH) was calculated according to the following equation:2 ERH=CLH/Q where CLH is a hepatic clearance (per gram of liver) and Q is a perfusate flow (per gram of liver).
The apparent hepatobiliary clearance (CLb,app) was calculated as the cumulative amount of drug excreted in bile divided by the AUC0-t of the drug in the perfusate.

For CN1c2ccccc2C(NCCCCCCC(=O)O)c2ccc(Cl)cc2S1(=O)=O (stereo not drawn) [Tianeptine, Tianeptine sodium salt], the “concentration in the perfusion buffer” value (after 45 min) was 17 ng/mL, the “concentration in the perfusion buffer” value (first sampling time (5 min)) was 952 ng/mL and the “percent eliminated into the bile” value (up to 45 min of perfusion, mean ± SD) was 0.94 ± 0.33 % of the administered dose.

Structures can show the parent of a compound that is named as a salt.
